Experimental data taken from ChEMBL document CHEMBL1157627, “A novel insulin secretagogue based on a dinucleoside polyphosphate scaffold” (J Med Chem, 2010).

The chains behind the UniProt entries cited, without tags or fusion partners. Where a name states a change or a piece, a line headed by the entry shows the natural chain unless it says otherwise.
UniProt P47900: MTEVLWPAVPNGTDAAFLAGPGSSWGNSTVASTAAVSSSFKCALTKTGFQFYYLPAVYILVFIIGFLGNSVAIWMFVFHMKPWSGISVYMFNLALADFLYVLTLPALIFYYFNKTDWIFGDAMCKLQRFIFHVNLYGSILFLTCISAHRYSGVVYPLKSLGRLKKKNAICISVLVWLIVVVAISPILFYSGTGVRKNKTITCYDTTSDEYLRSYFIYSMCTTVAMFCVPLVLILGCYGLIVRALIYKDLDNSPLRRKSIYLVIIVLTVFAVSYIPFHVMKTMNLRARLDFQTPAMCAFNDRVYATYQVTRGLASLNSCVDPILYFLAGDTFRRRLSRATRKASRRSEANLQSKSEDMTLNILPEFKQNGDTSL

Biological target: P2Y purinoceptor 1 (Homo sapiens, UniProt P47900)
Test: Agonist activity at G-protein coupled P2Y1 receptor expressed in human 1321N1 cells assessed as increase in calcium by Fura2 assay
Assay type: functional, cell-based
Outline: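 Human 1321N1 astrocytoma cells stably expressing turkey P2Y1 receptor, grown in DMEM with 5% FBS and G-418. Cell suspensions loaded with fura-2; [Ca2+]i read by dual-excitation spectrofluorometry at 37 °C in 10 mM HEPES-buffered saline pH 7.4 with 1 mM CaCl2 and 1 mM MgCl2. EC50 from maximal [Ca2+]i rise across concentrations; three experiments on separate days.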

For `CSc1nc(N)c2ncn([C@@H]3O[C@H](COP(=O)(O)OP(=O)(O)O)[C@@H](O)[C@H]3O)c2n1` (single isomer, unassigned), the EC50 was 2.5 nM.
